Measurements published in patent US20040122089A1, “Novel eicosanoid analgesics” (priority 2001, published 2004).

Chains of the proteins cited; added tags and fusions are not shown.
UniProt P20272, whole entry: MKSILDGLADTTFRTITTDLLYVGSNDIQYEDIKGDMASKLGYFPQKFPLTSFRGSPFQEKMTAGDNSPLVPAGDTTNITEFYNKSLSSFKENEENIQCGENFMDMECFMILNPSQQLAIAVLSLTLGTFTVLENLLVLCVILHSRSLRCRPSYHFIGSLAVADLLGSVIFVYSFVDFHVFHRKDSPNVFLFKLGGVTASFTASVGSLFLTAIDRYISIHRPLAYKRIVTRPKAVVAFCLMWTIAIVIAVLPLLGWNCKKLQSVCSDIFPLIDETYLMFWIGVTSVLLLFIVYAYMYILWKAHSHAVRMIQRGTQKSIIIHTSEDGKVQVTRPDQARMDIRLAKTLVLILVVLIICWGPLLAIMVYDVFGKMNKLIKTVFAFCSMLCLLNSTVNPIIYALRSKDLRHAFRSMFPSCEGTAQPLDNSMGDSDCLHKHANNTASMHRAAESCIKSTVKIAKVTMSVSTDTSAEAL

Tests used:
[1] = target: T1, CB1 receptors (Rattus norvegicus, UniProt P20272); assay: CB1 receptor binding, [3H]CP55940, whole rat brain membranes (Example 3); details: read-out: CB1 affinity Ki
[2] = target: T1, CB1 receptors; assay: Agonist-stimulated [35S]GTPγS binding, rat hippocampal membranes

Row | Structure (SMILES) | Ki [1] [nM] | GTPγS binding (Emax) [2] [%]
1 | CCCCC/C=C\C/C=C\C/C=C\C/C=C\CCCC(=O)N[C@H](C)CO [Met-AEA, (R)-1′-Methyl-2′-hydroxy-ethyl-arachidonamide, reference compound] | 20 | 
2 | Cc1c(C(=O)c2cccc3ccccc23)c2cccc3c2n1[C@H](CN1CCOCC1)CO3 [WIN55,212-2, reference compound] |  | 51
